One compound from PubChem BioAssay AID651955 (The Scripps Research Institute Molecular Screening Center, 2012) can be followed below.

The chains behind the UniProt entries cited, without tags or fusion partners. Where a name states a change or a piece, a line headed by the entry shows the natural chain unless it says otherwise.
UniProt Q96RJ0: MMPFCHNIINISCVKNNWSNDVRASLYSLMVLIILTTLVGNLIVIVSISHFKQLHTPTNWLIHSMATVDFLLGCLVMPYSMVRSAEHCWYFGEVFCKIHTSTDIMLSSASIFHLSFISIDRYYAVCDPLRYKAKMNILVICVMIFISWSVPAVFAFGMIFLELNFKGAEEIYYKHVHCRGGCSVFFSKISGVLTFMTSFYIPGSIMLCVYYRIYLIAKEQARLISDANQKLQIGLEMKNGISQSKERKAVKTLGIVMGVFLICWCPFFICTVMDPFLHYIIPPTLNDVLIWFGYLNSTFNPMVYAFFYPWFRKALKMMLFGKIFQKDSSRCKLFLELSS

Molecules are shown by their SMILES. The list shows a part of the results, in another mix than the full data. Activity calls are given as the source filed them. Rule as the data show it: active = activation above about 37%; inactive = the rest.

For the assay, the target named is Trace amine-associated receptor 1 (Homo sapiens) (UniProt Q96RJ0). The experiment in a line: TAAR1 activation by candidate antagonists – cell-based, fluorescence, counter-screen for TAAR1 antagonist project (AID 651955).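 Also: CHO cells stably expressing TAAR1 with calcium dye readout; 0% = DMSO vehicle and 100% = full agonist response.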 To be noted: hTAAR1 cell line, agonist mode, at 3 µM, hits give high values.
In the case of `Cc1ccccc1OP(=O)(Nc1ccccn1)Oc1ccccc1C`, the activation is inactive: 12.8%.
